The test system of this test is liver. As to the kind of experiment: CCl4 induced hepatotoxicity in rats (serum AST/ALT). It is filed as in vivo. Conditions: rat plasma, 100 mg/kg ip 24 h prior, 48 h after 2.9 g/kg CCl4. How it is done:
In vivo experiments were performed to determine if alpha-TS administration protects the liver from chemical toxicity. The liver is the target organ for CCl4. CCl4 is a hepatotoxic agent that induces centrilobular liver necrosis through its metabolism to free radicals. Male Sprague-Dawley rats were given an intraperitoneal dose (100 mg/kg) of a tocopherol analog 24 hours prior to a CCl4 challenge (2.9g/kg given by oral garage). Forty eight hours after the challenge, the rats were sacrificed and the levels of aspartate aminotransferase (AST) and alanine aminotransferase (ALT) were measured.
As discussed above, SGOT levels provide a clinical assessment of hepatotoxicity (liver damage).
Succinate analogs were administered to male Sprague-Dawley rats 20 hours prior to a 1 g CCl4 /kg body weight oral challenge and the AST and ALT serum enzyme levels were measured 48 hours after the challenge.
Similar to the experiments were described above, the ionizable congeners were administered to Sprague-Dawley rats by i.p. injection of a 100 mg ionizable congener/kg body weight dose 20 hours prior to oral administration of a 1 g/kg dose of CCl4, and the AST and ALT levels were measured 48 hours after the CCl4 challenge.

Turning to `Cc1c(C)c2c(c(C)c1O)CC[C@@](C)(CCC[C@H](C)CCC[C@H](C)CCCC(C)C)O2` [alpha-T, d-alpha-tocopherol, reference compound], the ALT was 4,678 ± 290 Units/L and the AST is 17,330 ± 7220 Units/L.
